This note sets out measurements from patent publication US4735954A, “Anti-rheumatic agent” (priority 1985, dated 1988).

The structures appear in SMILES notation.

A short description of the data set: acute toxicity in rats. As to conditions: rat, in vivo, po, Male. The source says: This invention has been achieved by our discovery of the prominent effect of KC-404 on adjuvant-induced arthritis which is an experimental model of the articular rheumatism. […] The results in Experiment 1 are predictable for the clinical effects of KC-404.

On to `CC(C)C(=O)c1c(C(C)C)nn2ccccc12` [KC-404, 3-isobutyryl-2-isopropylpyrazalo[1,5-a]pyridine], for which the LD50 was 1340 mg/kg.
